Experimental data from PubChem BioAssay AID2130 (The Scripps Research Institute Molecular Screening Center, 2009).
This is a selection; strong and weak results do not stand in their true shares. Active and inactive are the calls of the source.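 The calls were made as follows: active = inhibition above the campaign mean of all compounds plus 3 SD (cut at about 26% in these data); inactive = the rest.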

The chains behind the UniProt entries cited, without tags or fusion partners.
UniProt Q9Y570, whole entry: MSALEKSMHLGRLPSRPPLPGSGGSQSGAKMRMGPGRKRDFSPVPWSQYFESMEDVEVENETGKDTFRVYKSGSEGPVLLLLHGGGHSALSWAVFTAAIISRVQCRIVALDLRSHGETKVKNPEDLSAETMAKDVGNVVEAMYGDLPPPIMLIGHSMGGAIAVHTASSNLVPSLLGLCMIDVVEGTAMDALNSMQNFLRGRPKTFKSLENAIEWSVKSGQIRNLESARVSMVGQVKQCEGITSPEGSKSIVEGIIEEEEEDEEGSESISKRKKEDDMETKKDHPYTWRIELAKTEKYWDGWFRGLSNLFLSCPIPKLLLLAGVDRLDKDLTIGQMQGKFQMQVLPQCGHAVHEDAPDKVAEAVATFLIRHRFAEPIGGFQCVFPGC

Target: Protein phosphatase methylesterase 1 (Homo sapiens) (UniProt Q9Y570)
Assay: human PME-1 methylesterase blockers – biochemical, fluorescence polarization, FP-Rh probe, HTS, primary screen (AID 2130);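 also: competitive labeling of PME-1 active site by serine hydrolase directed probe; 0% = PME-1 with DMSO and 100% = wells lacking PME-1 enzyme; inhibitors block probe labeling so polarization falls and inhibition rises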
Settings: recombinant PME-1, FP-Rh probe fluorescence polarization; at 5.9 µM; active compounds read high

SMILES | inhibition
O=C(O)c1cccc(Nc2c([N+](=O)[O-])cc([N+](=O)[O-])cc2[N+](=O)[O-])c1 | inactive: -2.4%
CC1=NCCc2c1[nH]c1ccccc21.O=[N+]([O-])c1cc([N+](=O)[O-])c(O)c([N+](=O)[O-])c1 | inactive: 0.22%
COc1ccccc1OP(C)(=O)Nc1cccc(Br)c1 (centres undefined) | inactive: 3.09%
Cc1cc(C)cc(OP(C)(=O)Nc2ccc(C)cc2C)c1 (centres undefined) | inactive: 6.61%
CCOC(=O)c1ccc(NP(C)(=O)Oc2cc(C)cc(C)c2)cc1 (centres undefined) | inactive: -7.25%
Cc1cc(C)cc(OP(C)(=O)Nc2ccccn2)c1 (centres undefined) | inactive: -9.47%
CP(=O)(Nc1cccc(Br)c1)Oc1ccccc1 (centres undefined) | inactive: 12.3%
Cc1ccc(C)c(NP(C)(=O)Oc2ccccc2)c1 (centres undefined) | inactive: 14.1%
O=[N+]([O-])c1cc([N+](=O)[O-])c(-n2nnc3ccccc32)c([N+](=O)[O-])c1 | inactive: -1.95%
O=[N+]([O-])c1cc([N+](=O)[O-])c(-c2cnn(-c3ccccc3)c2)c([N+](=O)[O-])c1 | inactive: 10.7%
Cc1nc2ccc3ccccc3c2s1.O=[N+]([O-])c1cc([N+](=O)[O-])c(O)c([N+](=O)[O-])c1 | inactive: -2.83%
CCOC(=O)C(CC)C1=NC(C)(C)Cc2ccccc21.O=[N+]([O-])c1cc([N+](=O)[O-])c(O)c([N+](=O)[O-])c1 (centres undefined) | inactive: -0.71%
CC1=C2N=C(C=C3N=C(C(C)=C4[N-][C@@](C)([C@@H]5N=C1[C@](C)(CCC(=O)NC[C@@H](C)OP(=O)([O-])O[C@H]1[C@@H](O)[C@@H](n6cnc7cc(C)c(C)cc76)O[C@@H]1CO)[C@H]5CC(N)=O)[C@@](C)(CC(N)=O)[C@@H]4CCC(N)=O)[C@@](C)(CC(N)=O)[C@@H]3CCC(N)=O)C(C)(C)[C@@H]2CCC(N)=O.[C-]#N.[Co+3] | inactive: 5.58%
O=[N+]([O-])c1cc([N+](=O)[O-])c(Nc2nnnn2CCO)c([N+](=O)[O-])c1 | inactive: -4.32%
CN1CCCCC1COC(=O)C1(O)c2ccccc2CCc2ccccc21 (centres undefined) | inactive: -1.47%
COc1ccccc1OP(C)(=O)Nc1c(C)cccc1C (centres undefined) | active: 37.3%
CCCOc1ccc(NP(C)(=O)Oc2ccc(Cl)cc2)cc1 (centres undefined) | inactive: 12.5%
CP(=O)(Nc1ccc(SC(F)(F)F)cc1)Oc1ccccc1 (centres undefined) | inactive: -0.09%
CP(=S)(Nn1cnnc1)Oc1ccccc1 (centres undefined) | inactive: -0.2%
COc1ccccc1OP(C)(=O)Nc1ccccc1 (centres undefined) | inactive: 5.7%
CP(=O)(Nc1ccccc1Br)Oc1ccccc1 (centres undefined) | active: 60.7%
CP(=O)(Oc1ccccc1)OC(c1ccccc1)C(F)(F)F (centres undefined) | inactive: -3.83%

SMILES | inhibition
CP(=O)(Nc1ccc(SC(F)(F)F)cc1)Oc1ccc(Cl)cc1 (centres undefined) | inactive: 19.2%
Cc1cccc(C)c1OP(C)(=O)Nc1ccc(SC(F)(F)F)cc1 (centres undefined) | inactive: 2.41%
Cc1cc(C)cc(OP(C)(=O)Nc2ccc(SC(F)(F)F)cc2)c1 (centres undefined) | inactive: 9.09%
CP(=O)(NC(=O)Nc1ccccc1)Oc1ccccc1 (centres undefined) | inactive: 5.81%
CCc1ccc(OP(C)(=O)N2CCN(c3ccc([N+](=O)[O-])cc3)CC2)cc1 (centres undefined) | inactive: 8.17%
CCOP(C)(=S)SCC(=O)NC(C)C(=O)O (centres undefined) | inactive: 2.45%
O=[N+]([O-])c1cc([N+](=O)[O-])c(O)c([N+](=O)[O-])c1.c1ccc(Oc2ccncc2)cc1 | inactive: -1.07%
CCOC(=O)c1ccc(NP(C)(=O)Oc2ccc(OC)cc2)cc1 (centres undefined) | inactive: 4.26%
CP(=O)(Nc1ccccn1)Oc1ccc(Cl)cc1 (centres undefined) | inactive: 7.7%
CCN(CC)CCCOC(=O)C(O)(c1ccccc1)c1ccccc1 | inactive: 2.38%
O=[N+]([O-])c1cc([N+](=O)[O-])c(Nc2cccnc2)c([N+](=O)[O-])c1 | inactive: 15.5%
Cc1cccc(C)c1OP(C)(N)=O (centres undefined) | inactive: 4.14%
CC(C)(C)c1ccc(OP(C)(=O)Nc2ccc(SC(F)(F)F)cc2)cc1 (centres undefined) | inactive: -1.97%
O=[N+]([O-])c1ccc2c(c1)C=Nc1ccccc1O2 | inactive: -1.17%
CCOC(=O)c1ccc(NP(C)(=O)Oc2ccccc2)cc1 (centres undefined) | inactive: 11.4%
Cc1ccc(NP(C)(=O)Oc2ccccc2)c(C)c1 (centres undefined) | inactive: 6.95%
COc1ccccc1OP(C)(=O)Nc1ccc(C)cc1 (centres undefined) | inactive: -7.93%
COc1ccc(OP(C)(=O)Nc2cccc(F)c2)cc1 (centres undefined) | inactive: -0.51%
COc1ccccc1OP(C)(=O)Nc1cc(Cl)ccc1C (centres undefined) | inactive: 4.17%
Cc1cc(C)cc(OP(C)(N)=O)c1 (centres undefined) | inactive: -1.61%
Cc1cc(C)cc(OP(C)(=O)Nc2cccc(C(F)(F)F)c2)c1 (centres undefined) | inactive: 3.66%
COc1ccc(OP(C)(=O)Nc2ccccc2Br)cc1 (centres undefined) | inactive: 4.34%
